Ab-95 light chain CDR variants: yeast mating affinities

Antigen: PDVDLGDISGINAS, a 14-residue peptide of the SARS-CoV-2 spike HR2 region.

The variants keep the heavy chain, the linker and the frameworks of Ab-95 (scFv order VH, three GGGGS repeats, VL).
VH: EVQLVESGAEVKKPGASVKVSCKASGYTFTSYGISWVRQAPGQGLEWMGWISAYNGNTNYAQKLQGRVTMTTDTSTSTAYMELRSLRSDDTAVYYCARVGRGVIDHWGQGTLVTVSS
VL: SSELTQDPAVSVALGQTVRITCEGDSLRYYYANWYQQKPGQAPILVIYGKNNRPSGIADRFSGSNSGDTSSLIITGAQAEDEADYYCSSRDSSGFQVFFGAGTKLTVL

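Library AAYL52 holds single substitutions and randomly drawn double and triple substitutions in the CDRs. The scFvs were displayed on barcoded MATa yeast, the peptide on MATalpha yeast. The frequency of each diploid, read from paired DNA barcodes, reflects how well the two displayed proteins bind. Scores were corrected for input abundance and mapped to Kd with protein pairs of known affinity run in the same pool. The assay was run in three technical replicates.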

Variants are written as CDR1, CDR2 and CDR3 of the light chain (limits as in the source). Parent: EGDSLRYYYAN, GKNNRPS, SSRDSSGFQVF. Affinities are written as log10 Kd with Kd in nM; a lower number is a better binder. Averages over replicates are reported, and they cover detected replicates only. "n.d." marks a missing value. The strain was present, yet no cells mated with the target were sequenced in that replicate, which points to weak or no binding. As a blank, each scFv also met three strains without target: over library AAYL52, 28% of these pairings were detected, typically at 3.91 and seldom below 2.90. Also given: how often the same scFv was detected with the empty control strains, with their mean in brackets.

| # | CDR-L1 | CDR-L2 | CDR-L3 | log10 Kd (nM) by replicate | mean log10 Kd (nM) | signal with controls |
|---|---|---|---|---|---|---|
| 1 | EGDSLRYYYAN | GLNNRPS | WSRDTSGFQVF | 3.85 n.d. n.d. | 3.85 | 3/9 (4.33) |
| 2 | EGDSLRYYYAN | GKNCRPS | SDRDSMGFQVF | 4.42 n.d. n.d. | 4.42 | 1/9 (3.01) |
| 3 | EGDSLRYYYAG | GKNNRPS | SSRDASGFKVF | 3.55 3.36 4.46 | 3.79 | 4/9 (4.10) |
| 4 | EGDALRYYYAN | GKNNRPS | SSRDSSEFYVF | 3.07 2.63 3.26 | 2.98 | 4/9 (3.86) |
| 5 | EGDSLRKYYAN | GKNDRPS | SSRDSSGFQVR | 2.69 2.31 1.91 | 2.30 | 5/9 (4.34) |
| 6 | EGDSLRYYYPN | GKNNRHS | WSRDSSGFQVF | 3.15 2.84 3.03 | 3.01 | 2/9 (4.06) |
| 7 | EGDSLRYYYEN | GKNNRPS | SSRDSAGLQVF | 4.89 n.d. n.d. | 4.89 | 3/9 (3.46) |
| 8 | RGKSLRYYYAN | GKQNRPS | SSRDSSGFQVF | 3.09 2.88 2.66 | 2.88 | 3/9 (3.29) |
| 9 | EGDSLRFYYAN | GKNNRPS | SSRDSIGFQVF | 2.47 2.02 1.74 | 2.08 | 3/9 (3.52) |
| 10 | EGDSRRYYYAN | GKNNRPS | SERDSSGFQYF | 3.50 n.d. n.d. | 3.50 | 0/9 |
| 11 | CGDSLRYHYAN | GKNNRPS | SSSDSSGFQVF | 1.86 1.84 1.57 | 1.76 | 5/9 (4.01) |
| 12 | EGDSLRYYYIN | GKNNRPS | SNRASSGFQVF | n.d. n.d. n.d. | n.d. | 2/9 (4.28) |
| 13 | EGDKLRYYYFN | GKNNRPS | SSRDSSGFQSF | n.d. n.d. n.d. | n.d. | 0/9 |
| 14 | EGDHIRYYYAN | GKNVRPS | SSRDSSGFQVF | n.d. 3.32 3.18 | 3.25 | 2/9 (3.30) |
| 15 | EGDSLRYYYAN | HKNNRPS | SSRWSSGTQVF | 4.53 n.d. n.d. | 4.53 | 3/9 (3.79) |
| 16 | EGDSPRYYYAN | GKNNRPS | TSRDSSGEQVF | 3.41 3.23 3.51 | 3.39 | 3/9 (3.59) |
| 17 | EGDSLRYYYAN | GKNNNPS | SSRESSGFQVS | 4.10 3.68 n.d. | 3.89 | 3/9 (3.21) |
| 18 | EGDSLRYYYAN | GPNNRPQ | SSRDSSGFQVF | 2.73 2.60 2.47 | 2.60 | 3/9 (3.49) |
| 19 | KGDSLRYYYDN | GANNRPS | SSRDSSGFQVF | 3.10 3.02 2.66 | 2.93 | 5/9 (4.03) |
| 20 | VGDSLRYYYAN | GKNNRES | SSRVSSGFQVF | 2.39 1.91 1.94 | 2.08 | 0/9 |
| 21 | TGDSLRYYYAN | GKNNRPS | SSRPSSGQQVF | 2.33 2.34 2.04 | 2.24 | 5/9 (4.03) |
| 22 | EGDSLRMYYAN | GKNNRPK | SSRDSSLFQVF | n.d. 5.02 n.d. | 5.02 | 0/9 |
| 23 | EGDSLRYYYPN | HKTNRPS | SSRDSSGFQVF | 2.73 n.d. n.d. | 2.73 | 0/9 |
| 24 | EHDSQRYYYAN | GKNNRPS | LSRDSSGFQVF | 4.50 n.d. n.d. | 4.50 | 0/9 |
| 25 | EGDSLRYKGAN | GKNNRPS | SSRDSEGFQVF | 2.71 2.73 1.99 | 2.47 | 1/9 (3.46) |
| 26 | EGDSLRYYYAN | AKNHRPS | SSRDSSKFQVF | n.d. 4.56 n.d. | 4.56 | 6/9 (4.20) |
| 27 | EGDSLRYYYAN | WKNNRPL | SSRDSVGFQVF | 3.54 3.78 n.d. | 3.66 | 3/9 (3.88) |
| 28 | EGDSCRYYYAF | GKNARPS | SSRDSSGFQVF | 5.26 n.d. n.d. | 5.26 | 0/9 |
| 29 | EGDSLRYYYAY | GKNNRQS | SSRDSCGFQVF | n.d. n.d. n.d. | n.d. | 1/9 (4.73) |
| 30 | EPDSLRYYYAN | QKNNRPS | SSRDSSGMQVF | 4.10 n.d. n.d. | 4.10 | 5/9 (3.67) |
| 31 | EGDFLRYYYTN | GKNNRPS | SSRISSGFQVF | 4.25 3.19 n.d. | 3.72 | 3/9 (4.08) |
| 32 | EGDSFRYYYAN | GKNNRPS | FSRDSSGFQQF | n.d. n.d. n.d. | n.d. | 1/9 (3.94) |
| 33 | EGDSLRYYYAN | GKNNRMS | WCRDSSGFQVF | n.d. 3.92 n.d. | 3.92 | 1/9 (5.01) |
| 34 | EGDSLRYYYEN | GKNNRPS | SSGDSSGFQVA | n.d. 4.19 n.d. | 4.19 | 1/9 (3.66) |
| 35 | EGDSLRYYYHN | RKNNRPS | SSRDSSGFQVF | n.d. n.d. n.d. | n.d. | 2/9 (2.79) |
| 36 | EGDSLRYYYAN | GKNNRVS | SSRDSSGFQVF | 2.53 2.56 2.20 | 2.43 | 3/9 (4.21) |

For reference, 4 entries of the list once more:

| CDR-L1 | CDR-L2 | CDR-L3 | log10 Kd (nM) by replicate | mean log10 Kd (nM) | signal with controls |
|---|---|---|---|---|---|
| EGDSLRYYYPN | HKTNRPS | SSRDSSGFQVF | 2.73 n.d. n.d. | 2.73 | 0/9 |
| EGDSLRYYYIN | GKNNRPS | SNRASSGFQVF | n.d. n.d. n.d. | n.d. | 2/9 (4.28) |
| TGDSLRYYYAN | GKNNRPS | SSRPSSGQQVF | 2.33 2.34 2.04 | 2.24 | 5/9 (4.03) |
| EGDSLRYYYAN | GKNNNPS | SSRESSGFQVS | 4.10 3.68 n.d. | 3.89 | 3/9 (3.21) |

The measurements come from Engelhart et al. 2022 (doi:10.1038/s41597-022-01779-4) through the FLAb antibody collection.